Data from ChEMBL document CHEMBL5247649, “Comparative Efficacy and Selectivity of Pharmacological Inhibitors of DYRK and CLK Protein Kinases” (J Med Chem, 2023).
One block for each compound: values may come before it.

Chains of the proteins cited; added tags and fusions are not shown. Lines headed by an entry give the natural chain unless they say otherwise; changes in a name come on top.
UniProt P49760, whole entry: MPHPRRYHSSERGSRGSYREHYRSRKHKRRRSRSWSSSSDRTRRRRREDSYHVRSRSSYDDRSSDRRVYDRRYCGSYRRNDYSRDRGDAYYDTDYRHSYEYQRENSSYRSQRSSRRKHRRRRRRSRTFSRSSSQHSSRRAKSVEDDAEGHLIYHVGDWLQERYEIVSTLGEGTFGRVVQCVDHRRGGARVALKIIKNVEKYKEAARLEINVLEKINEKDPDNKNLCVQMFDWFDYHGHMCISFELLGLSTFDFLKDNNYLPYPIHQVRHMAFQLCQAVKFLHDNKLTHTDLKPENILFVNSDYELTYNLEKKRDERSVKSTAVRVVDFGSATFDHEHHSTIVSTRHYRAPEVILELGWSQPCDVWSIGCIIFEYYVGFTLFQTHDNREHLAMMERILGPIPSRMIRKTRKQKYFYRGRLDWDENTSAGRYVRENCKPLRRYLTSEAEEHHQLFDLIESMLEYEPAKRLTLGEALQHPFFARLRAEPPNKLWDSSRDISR
UniProt P49759: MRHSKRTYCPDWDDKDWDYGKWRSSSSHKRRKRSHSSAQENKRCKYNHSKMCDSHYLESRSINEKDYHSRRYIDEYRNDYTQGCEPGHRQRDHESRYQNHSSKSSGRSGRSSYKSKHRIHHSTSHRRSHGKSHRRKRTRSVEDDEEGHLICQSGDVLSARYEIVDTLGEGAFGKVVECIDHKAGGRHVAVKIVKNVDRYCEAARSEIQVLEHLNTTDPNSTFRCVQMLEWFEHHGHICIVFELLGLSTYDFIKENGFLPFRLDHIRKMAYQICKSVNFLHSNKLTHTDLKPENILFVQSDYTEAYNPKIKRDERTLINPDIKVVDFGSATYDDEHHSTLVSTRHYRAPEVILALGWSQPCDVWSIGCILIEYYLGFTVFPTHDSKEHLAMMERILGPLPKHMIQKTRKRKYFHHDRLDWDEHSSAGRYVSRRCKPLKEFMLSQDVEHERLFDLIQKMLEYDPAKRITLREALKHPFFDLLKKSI
UniProt P49761: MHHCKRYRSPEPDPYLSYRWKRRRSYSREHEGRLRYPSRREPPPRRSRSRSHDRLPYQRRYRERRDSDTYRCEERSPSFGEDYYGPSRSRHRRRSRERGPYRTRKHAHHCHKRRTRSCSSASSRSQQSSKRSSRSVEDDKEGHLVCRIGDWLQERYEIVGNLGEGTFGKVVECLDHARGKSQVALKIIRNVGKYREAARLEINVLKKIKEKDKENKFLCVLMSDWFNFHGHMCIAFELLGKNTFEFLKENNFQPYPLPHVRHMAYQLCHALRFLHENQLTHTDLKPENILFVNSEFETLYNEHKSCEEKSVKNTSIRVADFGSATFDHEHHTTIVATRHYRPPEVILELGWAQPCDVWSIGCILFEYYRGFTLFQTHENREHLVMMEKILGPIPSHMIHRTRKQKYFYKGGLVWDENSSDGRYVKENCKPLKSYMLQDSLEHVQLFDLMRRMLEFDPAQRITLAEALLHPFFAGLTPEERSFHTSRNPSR
UniProt P49841: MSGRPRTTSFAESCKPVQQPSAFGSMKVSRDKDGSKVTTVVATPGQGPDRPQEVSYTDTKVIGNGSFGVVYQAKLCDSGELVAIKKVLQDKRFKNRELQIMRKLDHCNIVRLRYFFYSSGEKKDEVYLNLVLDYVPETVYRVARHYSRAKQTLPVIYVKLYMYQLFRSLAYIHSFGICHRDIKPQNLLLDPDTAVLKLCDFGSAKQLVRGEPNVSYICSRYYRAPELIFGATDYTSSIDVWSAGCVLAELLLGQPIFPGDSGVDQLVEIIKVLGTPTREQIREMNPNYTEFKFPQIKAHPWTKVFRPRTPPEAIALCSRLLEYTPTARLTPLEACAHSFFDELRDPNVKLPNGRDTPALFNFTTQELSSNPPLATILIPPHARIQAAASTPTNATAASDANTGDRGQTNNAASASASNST
UniProt P49674: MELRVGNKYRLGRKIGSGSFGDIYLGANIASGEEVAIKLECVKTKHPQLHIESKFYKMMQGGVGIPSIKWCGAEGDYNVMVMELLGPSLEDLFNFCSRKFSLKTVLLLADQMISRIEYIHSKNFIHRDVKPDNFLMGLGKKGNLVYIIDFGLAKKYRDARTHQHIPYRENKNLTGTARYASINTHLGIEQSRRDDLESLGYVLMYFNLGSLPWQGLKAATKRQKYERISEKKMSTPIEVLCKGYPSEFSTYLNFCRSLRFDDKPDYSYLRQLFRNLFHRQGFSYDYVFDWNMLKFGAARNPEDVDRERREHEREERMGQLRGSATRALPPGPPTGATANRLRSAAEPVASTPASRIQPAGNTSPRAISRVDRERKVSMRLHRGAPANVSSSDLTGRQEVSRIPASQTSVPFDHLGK
UniProt Q00535, whole entry: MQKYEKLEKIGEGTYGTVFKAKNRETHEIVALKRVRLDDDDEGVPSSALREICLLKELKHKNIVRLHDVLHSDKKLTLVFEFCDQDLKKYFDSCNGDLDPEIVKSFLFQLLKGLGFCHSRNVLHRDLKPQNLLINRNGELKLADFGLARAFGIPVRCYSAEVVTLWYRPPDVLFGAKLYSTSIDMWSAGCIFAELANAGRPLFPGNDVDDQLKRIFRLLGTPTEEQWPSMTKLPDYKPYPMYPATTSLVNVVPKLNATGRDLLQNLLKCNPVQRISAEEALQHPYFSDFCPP

Key:
[1] = molecular target: Dual specificity protein kinase CLK2 (Homo sapiens, UniProt P49760); test: biochemical
[2] = molecular target: T1, Dual specificity protein kinase CLK1 (Homo sapiens, UniProt P49759); test: biochemical
[3] = molecular target: T1, Dual specificity protein kinase CLK1
[4] = molecular target: T2, Dual specificity tyrosine-phosphorylation-regulated kinase 3 (Homo sapiens, UniProt O43781); test: biochemical
T2 sequence (O43781 whole entry): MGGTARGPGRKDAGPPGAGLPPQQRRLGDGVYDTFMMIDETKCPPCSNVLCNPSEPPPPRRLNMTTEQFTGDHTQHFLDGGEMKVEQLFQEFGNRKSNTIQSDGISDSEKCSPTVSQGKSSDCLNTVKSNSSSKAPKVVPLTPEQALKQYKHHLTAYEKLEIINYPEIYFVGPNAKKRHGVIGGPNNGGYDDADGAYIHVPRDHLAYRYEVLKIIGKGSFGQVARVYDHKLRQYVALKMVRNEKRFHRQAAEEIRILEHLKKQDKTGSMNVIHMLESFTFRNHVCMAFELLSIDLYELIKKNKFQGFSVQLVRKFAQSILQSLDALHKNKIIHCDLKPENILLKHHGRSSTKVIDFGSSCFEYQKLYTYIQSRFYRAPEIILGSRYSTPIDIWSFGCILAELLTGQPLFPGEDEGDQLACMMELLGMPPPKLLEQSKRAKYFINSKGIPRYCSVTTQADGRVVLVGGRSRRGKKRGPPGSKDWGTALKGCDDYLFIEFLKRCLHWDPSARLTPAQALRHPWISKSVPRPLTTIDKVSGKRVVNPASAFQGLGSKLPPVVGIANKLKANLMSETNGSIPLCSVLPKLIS

[5] = molecular target: T1, Dual specificity protein kinase CLK1; test: biochemical; remark: listed apart in the source
[6] = molecular target: Dual specificity protein kinase CLK3 (Homo sapiens, UniProt P49761); test: biochemical
[7] = molecular target: T3, Glycogen synthase kinase-3 beta (Homo sapiens, UniProt P49841)
[8] = molecular target: T3, Glycogen synthase kinase-3 beta; test: biochemical
[9] = molecular target: T4, Dual specificity tyrosine-phosphorylation-regulated kinase 2 (Homo sapiens, UniProt Q92630); test: biochemical
T4 sequence (Q92630 whole entry): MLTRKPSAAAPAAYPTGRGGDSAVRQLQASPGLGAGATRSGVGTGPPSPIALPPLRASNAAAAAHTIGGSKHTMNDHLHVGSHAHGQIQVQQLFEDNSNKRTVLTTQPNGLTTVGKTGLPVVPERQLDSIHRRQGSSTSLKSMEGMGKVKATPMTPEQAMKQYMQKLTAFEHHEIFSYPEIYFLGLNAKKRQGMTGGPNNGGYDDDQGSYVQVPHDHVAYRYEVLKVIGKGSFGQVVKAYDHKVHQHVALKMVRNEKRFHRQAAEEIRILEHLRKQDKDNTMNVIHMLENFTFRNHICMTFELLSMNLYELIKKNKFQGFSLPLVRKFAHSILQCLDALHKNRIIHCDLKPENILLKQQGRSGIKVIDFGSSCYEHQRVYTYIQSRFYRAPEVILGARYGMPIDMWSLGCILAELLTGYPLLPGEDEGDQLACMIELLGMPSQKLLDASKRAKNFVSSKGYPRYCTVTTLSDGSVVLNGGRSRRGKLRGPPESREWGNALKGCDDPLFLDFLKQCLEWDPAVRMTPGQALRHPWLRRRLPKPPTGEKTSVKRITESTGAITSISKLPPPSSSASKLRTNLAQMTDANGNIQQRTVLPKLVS

[10] = molecular target: Casein kinase I isoform epsilon (Homo sapiens, UniProt P49674); test: biochemical
[11] = molecular target: Dual specificity tyrosine-phosphorylation-regulated kinase 1A (Homo sapiens, UniProt Q13627); test: biochemical
[12] = molecular target: T5, Dual specificity tyrosine-phosphorylation-regulated kinase 4 (Homo sapiens, UniProt Q9NR20); test: biochemical
T5 sequence (Q9NR20 whole entry): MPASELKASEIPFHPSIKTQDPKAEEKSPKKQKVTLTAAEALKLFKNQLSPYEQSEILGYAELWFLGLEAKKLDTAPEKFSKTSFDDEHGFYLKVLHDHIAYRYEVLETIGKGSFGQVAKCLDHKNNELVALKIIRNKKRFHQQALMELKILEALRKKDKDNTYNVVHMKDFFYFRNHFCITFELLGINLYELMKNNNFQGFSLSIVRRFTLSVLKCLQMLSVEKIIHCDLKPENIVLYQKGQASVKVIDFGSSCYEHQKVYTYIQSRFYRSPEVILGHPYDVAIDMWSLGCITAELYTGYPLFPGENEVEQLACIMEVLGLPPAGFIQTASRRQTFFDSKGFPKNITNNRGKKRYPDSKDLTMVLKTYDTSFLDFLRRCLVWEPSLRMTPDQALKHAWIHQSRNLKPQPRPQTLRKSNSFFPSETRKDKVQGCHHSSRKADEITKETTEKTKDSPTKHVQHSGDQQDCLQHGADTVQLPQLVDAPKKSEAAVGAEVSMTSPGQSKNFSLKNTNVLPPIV

[13] = molecular target: Cyclin-dependent kinase 5/CDK5 activator 1 (Homo sapiens, UniProt Q00535); test: biochemical; type: cell-based, Sf9

- IC50 [1]: 1890 nM
- IC50 [2]: 77.2 nM
- Kd [3]: 8.51 nM
- IC50 [4]: > 10 µM
- IC50 [5]: 51.5 nM
SMILES: O=C1NC(Nc2ccccc2)=N/C1=C\c1ccc2c(c1)OCO2

- IC50 [2]: 16.1 nM
- Kd [3]: 0.228 nM
- IC50 [5]: 7.3 nM
SMILES: Cc1nc2ccc(-c3cc(N)nc(N)c3)nc2n1C(C)C

SMILES: Cn1cc(-c2ccc3occ(-c4cccc(-c5ccncc5)c4)c3n2)cn1
- IC50 [1]: 114 nM
- IC50 [2]: 104 nM
- IC50 [6]: > 10 µM

SMILES: CN1Cc2nn(C)c(C#N)c2-c2cnc3[nH]c(F)c(c3c2)-c2cn(nc2C(F)(F)F)CCCC1=O
- IC50 [2]: 1120 nM
- Kd [3]: 41.8 nM

SMILES: Cn1cc(-c2ccc3cnc(NC(=O)C4CCN(S(C)(=O)=O)CC4)cc3c2)cn1
- Kd [7]: 3.75 nM
- IC50 [8]: 197 nM

- IC50 [2]: > 10000 nM
- IC50 [9]: > 10 µM
- IC50 [8]: > 10000 nM
- IC50 [4]: > 10 µM
- IC50 [10]: > 10 µM
- IC50 [11]: > 10 µM
- IC50 [12]: > 10 µM
- IC50 [6]: > 10 µM
- IC50 [13]: > 10 µM
SMILES: [H]/N=C(\N/C(=N/[H])NCCCCCCNC(=N)NC(=N)Nc1ccc(Cl)cc1)Nc1ccc(Cl)cc1 [CHLORHEXIDINE]

SMILES: COc1ccc2c(c1)[nH]c1c(C)nccc12 [HARMINE]
- IC50 [13]: > 10 µM
